{"source": "patent US20040132806A1", "about": "“Pravastatin pharmaceutical formulations and methods of their use” (priority 2002, published 2004)", "origin": "cited, not measured here", "biological_target": "T1, HMG-CoA reductase (Homo sapiens, UniProt P04035)", "T1 sequence (P04035 1-888)": "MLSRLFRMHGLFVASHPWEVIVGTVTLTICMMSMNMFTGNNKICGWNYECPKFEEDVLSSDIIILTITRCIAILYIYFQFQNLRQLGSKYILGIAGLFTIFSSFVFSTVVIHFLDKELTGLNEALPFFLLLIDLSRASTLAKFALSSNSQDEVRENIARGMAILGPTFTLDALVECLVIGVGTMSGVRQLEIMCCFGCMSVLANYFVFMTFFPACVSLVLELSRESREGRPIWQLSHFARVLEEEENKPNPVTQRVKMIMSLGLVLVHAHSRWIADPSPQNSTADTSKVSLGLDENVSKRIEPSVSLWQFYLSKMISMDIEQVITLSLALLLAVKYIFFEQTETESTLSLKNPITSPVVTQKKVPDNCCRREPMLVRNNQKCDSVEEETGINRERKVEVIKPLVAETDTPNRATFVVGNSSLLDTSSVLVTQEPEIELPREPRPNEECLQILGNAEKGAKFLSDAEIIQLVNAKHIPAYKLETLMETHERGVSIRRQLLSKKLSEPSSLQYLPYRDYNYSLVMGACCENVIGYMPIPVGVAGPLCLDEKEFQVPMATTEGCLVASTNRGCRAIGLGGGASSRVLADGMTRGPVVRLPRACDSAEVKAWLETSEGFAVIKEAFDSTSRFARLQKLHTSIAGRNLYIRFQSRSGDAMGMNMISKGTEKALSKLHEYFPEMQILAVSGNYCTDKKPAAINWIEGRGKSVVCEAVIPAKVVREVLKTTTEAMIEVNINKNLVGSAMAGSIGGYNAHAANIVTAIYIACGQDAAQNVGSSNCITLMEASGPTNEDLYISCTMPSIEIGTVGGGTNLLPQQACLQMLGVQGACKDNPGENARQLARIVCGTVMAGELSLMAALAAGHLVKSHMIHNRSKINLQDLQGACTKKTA", "conditions": "fraction of pravastatin's activity", "data": [{"smiles": "CCC(C)C(=O)O[C@H]1CC=CC2=C[C@H](O)[C@H](C)[C@H](CC[C@@H](O)C[C@@H](O)CC(=O)O)[C@H]21", "note": "(single isomer, unassigned) [3α-hydroxy isomeric metabolite, 3α-hydroxyisomer of pravastatin]", "values": [{"measurement": "HMG-CoA reductase inhibitory activity relative to the parent compound", "value": "one-tenth to one-fortieth"}]}]}
